What was measured:
[1] = test system: prostacyclin (PGI2) generation on HPAEC; conditions: 100 μM, HPAEC with HK/PK
Procedure: The absorbance was measured spectrophotometrically at 405 nm.

[2] = test system: nitric oxide formation on HPAEC

CCCCCCCCCCCCNC(=O)[C@@H]1CCCN1C(=O)[C@@H]1CCCN1.Cl [RS-33-21, (S)—N-dodecyl-1-((S)-pyrrolidine-2-carbonyl)pyrrolidine-2-carboxamide hydrochloride]
reduction of PGI2 production [1]: 80% | PRCP-induced NO formation (in words) [2]: inhibited PRCP-induced NO formation | reduction of NO production ([2]; 100 μM, HPAEC with HK/PK): 80%
